The text below walks through data of PubChem BioAssay AID1347428 (National Center for Advancing Translational Sciences (NCATS), 2020).

By UniProt entry, the sequences of proteins in these tests, tags left out.
UniProt Q9GZX7, whole entry: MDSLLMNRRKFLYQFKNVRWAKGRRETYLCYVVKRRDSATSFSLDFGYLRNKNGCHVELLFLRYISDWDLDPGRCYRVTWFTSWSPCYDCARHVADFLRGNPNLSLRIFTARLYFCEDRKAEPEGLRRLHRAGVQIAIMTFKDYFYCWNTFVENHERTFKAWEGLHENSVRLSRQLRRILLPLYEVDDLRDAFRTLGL

Only a part is listed here, and it is no random draw. Records with an inconclusive call do not appear. The source made the active and inactive calls. Calls come from the whole dose curve; as a rule, active = well fitted inhibition curve with a large enough effect; inconclusive = small, poorly fitted or top-dose-only effect; inactive = no such curve, though single readings can be large or run the other way.
% is set by controls: 0 for no effect and ±100 for the full control effect.

The assay has as its target Single-stranded DNA cytosine deaminase (Homo sapiens) (UniProt Q9GZX7). The experiment in a line: Primary qHTS assay for inhibitors of Activation Induced Cytidine Deaminase (AID): AID signal. Note: nearly all actives have a fitted effect of over 25% in size. The note with it: AID deamination FRET fluorescence, UDG-coupled, 4 h; at 115 µM (top of the series). An excerpt: Assay Provider (PI) Patricia Gearhart Ph.D.
National Institute on Aging
National Institute of Health (NIH), Bethesda, MD
Assay Provider (PI) Rahul Kohli Ph.D.
Perelman School of Medicine
University of Pennsylvania, Philadelphia, PA
Activation-Induced Deaminase (AID) is a cytosine deaminase which converts cytosine into uracil within stretches of ssDNA. The presence of uracil in DNA initiates a cascade of mutagenic DNA repair to introduce point mutations and DNA double strand breaks. Specific targeting of AID to the immunoglobulin heavy chain loci (Igh) promotes mutagenesis in the antibody variable region for somatic hypermutation (SHM) or switch regions leading to class switch recombination (CSR). However, AID also plays a role in accumulating unnecessary mutations across the genome. Mis-targeting of AID results in the initiation of tumor development and leads to greater drug resistance among cancer cells when continually expressed. To identify an AID inhibitor, a small molecule library will be screened in collaboration with NCATS core facility at NIH. To confirm biological function, inhibitors will be examined in an in vitro murine B-cell activation assay and subsequent secondary validation screens. Top molecules will be further screened to identify inhibitory efficacy against a wild type primary splenocytes assay. Using these approaches, we hope to identify a small molecule with great efficacy and low toxicity for use as a molecular probe to further characterize AID's intricacies, or even as a therapeutic.
A FRET based analysis of cytosine deamination, was developed to identify potential inhibitors of AID catalytic activity. This screen has two signal output, Read 1 evaluates the AID inhibition response. The second readout (Read 2) evaluates UDG response and is uses as a counterscreen to exclude false positive inhibitors. Inhibition in AID and inactivity in the UDG signal is the desired outcome for this assay.
SEQUENCE No. (e.g., 1, 2, 3, etc.); […] (e.g., Cells, Incubation, Reagent, etc.); VALUE; DESCRIPTION
1a; Reagent; 3 uL; [4/3x] 1 uM AID/2.67 U/mL UDG
1b; Reagent; 3 uL; 2 U/mL UDG
1c; Reagent; 3 uL; 1 uM AID
2a; Compound; 46 nL; Follow-up plates (0.64 uM - 10 mM)
2b; Control; 46 nL; ATA ([…] - 10 mM)
3; Time; 10 min; incubation at room temperature
5; Time; 4 hr; incubation at room temperature
6; Reagent; 4 uL; [2x] 250 mM NaOH
7; Time; 15 sec; centrifuge at 1000 rpm
8; Time; 30 min; incubation at room temperature
9a; Detection; fluorescence (Read 1: AID); EnVision (PerkinElmer) plate reader, 540 excitation and 590 emission filters
9b; Detection; fluorescence (Read 2: UDG); EnVision (PerkinElmer) plate reader, 560 excitation and 665 emission filters
NOTES (numbers refer to sequence above)
1a; Reagents were dispensed in a medium-binding black solid-bottom Greiner plates (789176F) using a BioRptr liquid dispenser. Dispense 3 uL of [4/3x] 1 uM AID (provided by Kohli lab) and [4/3x] 2 U/mL UDG (NEB M0280L) into columns 1, 2, 5 to 48.
1b; Dispense 3 uL of [4/3x] 2 U/mL UDG into column 3.
1c; Dispense 3 uL of [4/3x] 1 uM AID into column 4.
2a; Compound (7-points [uM] (0.64; 3.2; 16; 80; 400; 2,000; 10,000; 20,000) double pin-transferred (Dip Factor = 2) using the Kalypsys (Wako USA) pintool equipped with a 1536 pinhead for a final concentration range of 7.32 nM - 114 uM.
2b; 10 mM Aurintricarboxylic Acid (Sigma A1895) (ATA, 8-point, n = 2, 1:2.5 dilution in column 2) double pin-transferred (Dip Factor = 2) using the Kalypsys (Wako USA) pintool equipped with a 1536 pinhead for a [final] range of 186 nM - 114 uM.
3; Room temperature incubation.
4; Dispense 1 uL of substrate mixture from the Kohli lab [4x] […] DJC20 and [4x] 250 nM DJC23 into columns 1 to 48 .
5; Room temperature incubation.
6; Dispense 4 uL of substrate mixture [2x] 250 mM NaOH into columns 1 to 48.
7; Centrifugation step to remove bubbles.
8; Room temperature incubation
9a; Fluorescence signal (column label AID) was read using the EnVision plate reader. […]
For orientation: Quantitative high-throughput screening tests each substance at several concentrations.
For `O=C(NCC1(N2CCCCC2)CCCCC1)c1c[nH]c2ccccc12`, the activity change, negative = inhibition is inactive: -20.9%. With `O=C(NCC1(N2CCOCC2)CCCCC1)c1ccc(Cl)cc1` the figure was inactive: -27.5%; with `COc1ccccc1C(=O)NCC1(N2CCOCC2)CCCCC1`, inactive: 11.7%.

On to `CC1CN(CCc2ccccc2)CCC1=O` (stereo not drawn), for which the activity change, negative = inhibition is inactive: 2.92%. Turning to `Fc1ccc(CN2CCC(Nc3ccccc3Cl)CC2)cc1`, the activity change, negative = inhibition was inactive: -14.4%. Then `COc1ccccc1C(=O)NCC1(N(C)C)CCCCC1`, with inactive: 2.41%. Turning to `CCCCOc1ccccc1C(=O)NCC1(N2CCOCC2)CCCCC1`, the activity change, negative = inhibition is inactive: -22.3%.

`O=C(NCC1(N2CCOCC2)CCCCC1)c1ccccc1Br`: the activity change, negative = inhibition is inactive: -9.92%. Then `CCCOc1cccc(C(=O)NCC2(N3CCOCC3)CCCCC2)c1`, with inactive: 1.9%; and `CCc1cc(C(=O)NCC2(N3CCOCC3)CCCCC2)sc1C`, with inactive: -7.81%. As for `CCOc1ccc(C(=O)NCC2(N3CCOCC3)CCCCC2)cc1`, the activity change, negative = inhibition was inactive: 6.19%. With `O=C(NCC1(N2CCOCC2)CCCCC1)c1ccccc1` the figure was inactive: 59.7%. With `O=C(NCC1(N2CCOCC2)CCCCC1)c1ccc([N+](=O)[O-])cc1` the figure was inactive: -1.64%; with `CC1C(=O)CCN(CCc2ccccc2)C1C` (stereo not drawn), inactive: -0.157%; with `O=C(NCC1(N2CCOCC2)CCCCC1)c1ccccc1[N+](=O)[O-]`, inactive: -13.4%. With `Cc1cc(NC2CCN(Cc3ccccc3)CC2)ccc1Br` the figure was inactive: 1.21%. `COc1cc(C(=O)NCC2(N3CCOCC3)CCCCC2)cc(OC)c1OC`: the activity change, negative = inhibition was inactive: -11.3%. With `CCCOc1ccc(C(=O)NCC2(N(C)C)CCCCC2)cc1` the figure was inactive: -2.31%. With `CC(C)(C)c1ccc(C(=O)NCC2(N3CCOCC3)CCCCC2)cc1` the figure was inactive: -17.5%; with `CC1CN(CCc2ccccc2)C(C)CC1=O` (stereo not drawn), inactive: 5.21%. With `Cc1ccccc1C(=O)NCC1(N(C)C)CCCCC1` the figure was inactive: -6.19%; with `CN(C)C1(CNC(=O)c2cc3c(s2)CCC3)CCCCC1`, inactive: -19.1%; with `CN(C)C1(CNC(=O)c2ccc(C(C)(C)C)cc2)CCCCC1`, inactive: -7.32%.
